Here are results for 26 compounds from patent US6022307A, “Substituted dibenzothiophenes having antiangiogenic activity” (American Cyanamid Company, priority 1999, dated 2000).

Counter-ions that a name gives are not always drawn.

The first experiment deals with BAE cells. As to the kind of experiment: Inhibition of binding of 125I-VEGF 165 to BAE cells. As to conditions: Bos taurus; inhibition of 125I-VEGF 165 binding to BAE cells; read-out: Cell Assay VEGF 165 IC50 BAE. The class given is cell-based, bovine.
Broadly, the IC50 is the concentration that inhibits the measured activity by half. As for `COc1ccc(C=CC(=O)Nc2cc3sc4cc(NC(=O)C=Cc5ccc(OC)c(OC)c5Cl)c(C(=O)[O-])cc4c3cc2C(=O)[O-])c(Cl)c1OC.[Na+].[Na+]`, the IC50 amounted to 7 µg/mL.
Regarding `O=C(Nc1cc2sc3cc(NC(=O)c4cc5sccc5s4)c(C(=O)[O-])cc3c2cc1C(=O)[O-])c1cc2sccc2s1.[Na+].[Na+]` [Example 5, 3,7-Bis[(thieno[3,2-b]thien-2-ylcarbonyl)amino]dibenzothiophene-2,8-dicarboxylic acid, disodium salt], the IC50 came out at 2.2 µg/mL.
Turning to `O=C(Nc1cc2sc3cc(NC(=O)c4cc5c(s4)-c4cc(Cl)ccc4SC5)c(C(=O)O)cc3c2cc1C(=O)O)c1cc2c(s1)-c1cc(Cl)ccc1SC2` [Example 6, 3,7-Bis[(8-chloro-4H-thieno[3,2-c][1]benzothiopyran-2-carbonyl)-amino]dibenzothio-phene-2,8-dicarboxylic acid, disodium], the 50% inhibitory concentration (IC50) stood at 3.7 µg/mL.
Still for that read-out and setting: as for `O=C(/C=C/c1ccc(-c2ccccc2)cc1)Nc1cc2sc3cc(NC(=O)/C=C/c4ccc(-c5ccccc5)cc4)c(C(=O)O)cc3c2cc1C(=O)O` [Example 9, 3,7-Bis-(3-biphenyl-4-ylacryloylamino)dibenzothiophene-2,8-dicarboxylic Acid, disodium salt], the figure is 10 µg/mL; as for `COc1cc(/C=C/C(=O)Nc2cc3sc4cc(NC(=O)/C=C/c5cc(Br)c(O)c(OC)c5)c(C(=O)O)cc4c3cc2C(=O)O)cc(Br)c1O` [Example 10, 3,7-Bis-[3-(3-bromo-4-hydroxy-5-methoxy-phenyl)acryloylamino]-dibenzothiophene-2,8-dicarboxylic Acid, disodium], 10 µg/mL.
Still for that read-out and setting: the same measure for `COc1ccc(/C=C/C(=O)Nc2cc3sc4cc(NC(=O)/C=C/c5ccc(OC)c(OC)c5OC)c(C(=O)O)cc4c3cc2C(=O)O)c(OC)c1OC` [Example 11, 3,7-Bis-[3-(2,3,4-trimethoxyphenyl)acryloylamino]dibenzothiophene-2,8-dicarboxylic Acid, disodium salt]: 6.6 µg/mL; for `COc1ccc(/C=C/C(=O)Nc2cc3sc4cc(NC(=O)/C=C/c5ccc(OC)cc5)c(C(=O)O)cc4c3cc2C(=O)O)cc1` [Example 12, 3,7-Bis{[3-(4-methoxyphenyl)acryloylamino]-dibenzothiophene-2,8-dicarboxylic Acid, disodium salt]: 10 µg/mL; for `O=C(Nc1cc2sc3cc(Cl)c(C(=O)[O-])cc3c2cc1C(=O)[O-])c1ccc2cc3ccccc3cc2c1.[Na+].[Na+]` [Example 15, 3-[(2-Anthracenylcarbonyl)amino]-7-chlorodibenzothiophene-2,8-dicarboxylic acid, disodium salt]: 4.1 µg/mL.
Still for that read-out and setting: the same measure for `CCOP(=O)(O)c1cc2c(cc1NC(=O)/C=C/c1ccc(OC)c(OC)c1Cl)S(=O)(=O)c1cc(NC(=O)/C=C/c3ccc(OC)c(OC)c3Cl)c(P(=O)(O)OCC)cc1-2` [Example 19, [3,7-Bis-[3-(2-chloro-3,4-dimethoxyphenyl)acryloylamino]-8-(ethoxyhydroxyphosphoryl)-5 .5-dioxo-5H-5λ^6-dibenzothiophen-2-yl]phosphonic acid monoethyl ester, disodium salt]: 0.59 µg/mL; for `CCOP(=O)(O)c1cc2c(cc1NC(=O)/C=C/c1ccc(OC)cc1)S(=O)(=O)c1cc(NC(=O)/C=C/c3ccc(OC)cc3)c(P(=O)(O)OCC)cc1-2` [Example 20, [3,7-Bis-[4-methoxyphenyl]-acryloylamino]-8-(ethoxyhydroxy-phosphoryl)-5,5-dioxo-5H-5^6-dibenzothiophen-2-yl]-phosphonic acid monoethyl ester, disodium salt]: 2.3 µg/mL.
`CCOP(=O)(O)c1cc2c(cc1NC(=O)c1ccc3c(c1)C(=O)c1ccccc1C3=O)S(=O)(=O)c1cc(NC(=O)c3ccc4c(c3)C(=O)c3ccccc3C4=O)c(P(=O)(O)OCC)cc1-2` [Example 21, [3,7-Bis-[9,10-dioxo-9,10-dihydroanthracene-2-carbonyl)amino]-8-(ethoxyhydroxy-phosphoryl)-5,5-dioxo-5H-5^6-dibenzothiophen-2-yl]phosphonic acid monoethyl ester, disodium salt]: the IC50 was found to be 0.8 µg/mL.
As to `CCOP(=O)(O)c1cc2c(cc1NC(=O)c1ccc3cc4ccccc4cc3c1)S(=O)(=O)c1cc(NC(=O)c3ccc4cc5ccccc5cc4c3)c(P(=O)(O)OCC)cc1-2` [Example 22, [3,7-Bis-[(anthracene-2-carbonyl)amino]-8-(ethoxyhydroxy-phosphoryl)-5,5-dioxo-5H-5^6-dibenzothiophen-2-yl]-phosphonic acid mono-ethyl ester, disodium salt], the IC50 was found to be 0.068 µg/mL.
On the same count and under the same terms, as for `CCOP(=O)(O)c1cc2c(cc1NC(=O)c1cc3ccccc3s1)S(=O)(=O)c1cc(NC(=O)c3cc4ccccc4s3)c(P(=O)(OCC)OCC)cc1-2` [Example 23b, [3,7-Bis[(benzo[b]thiophene-2-carbonyl)amino-8-(diethoxyphosphoryl)-5,5-dioxo-5H-5λ^6-dibenzothiophen-2-yl]phosphonic acid monoethyl ester, monosodium salt], the figure is 2.8 µg/mL.
As for `O=C(C=Cc1ccc(-c2ccccc2)cc1)Nc1cc2c(cc1S(=O)(=O)O)-c1cc(S(=O)(=O)O)c(NC(=O)C=Cc3ccc(-c4ccccc4)cc3)cc1S2(=O)=O` [Example 24, 3,7-Bis-[3-(4-phenylphenyl)acryloylamino]-5,5-dioxo-5H-5λ^6-dibenzothiophene-2,8-disulfonic acid, disodium salt], the IC50 came out at 0.32 µg/mL.
Same read-out and setting: as for `O=C(/C=C/c1ccc([N+](=O)[O-])cc1)Nc1cc2c(cc1S(=O)(=O)O)-c1cc(S(=O)(=O)O)c(NC(=O)/C=C/c3ccc([N+](=O)[O-])cc3)cc1S2(=O)=O` [Example 25, 3,7-Bis-[3-(4-nitrophenyl)-acryloylamino]-5,5-dioxo-5H-5^6-dibenzothiophene-2,8-disulfonic acid, disodium salt], the figure is 0.36 µg/mL; as for `O=C(/C=C/c1cccc2ccccc12)Nc1cc2c(cc1S(=O)(=O)O)-c1cc(S(=O)(=O)O)c(NC(=O)/C=C/c3cccc4ccccc34)cc1S2(=O)=O` [Example 26, 3,7-Bis-(3-naphthalen-1-yl-acryloylamino)-5,5-dioxo-5H-5^6-dibenzothiophene-2,8-disulfonic acid, disodium salt], 0.28 µg/mL.
Same read-out and setting: the same measure for `O=C(/C=C/c1ccncc1)Nc1cc2c(cc1S(=O)(=O)O)-c1cc(S(=O)(=O)O)c(NC(=O)/C=C/c3ccncc3)cc1S2(=O)=O` [Example 28, 5,5-Dioxo-3,7-bis-(3-pyridin-4-ylacryloylamino)-5H-5^6-dibenzothiophene-2,8-disulfonic acid, disodium salt]: 0.95 µg/mL.
Same read-out and setting: as for `O=Cc1ccc(/C=C/C(=O)Nc2cc3c(cc2S(=O)(=O)O)-c2cc(S(=O)(=O)O)c(NC(=O)/C=C/c4ccc(C=O)cc4)cc2S3(=O)=O)cc1` [Example 29, 3,7-Bis-[3-(4-formylphenyl)-acryloylamino]-5,5-dioxo-5H-5^6-dibenzothiophene-2,8-disulfonic acid, disodium salt], the figure is 0.3 µg/mL; as for `O=C(/C=C/c1cccc(O)c1)Nc1cc2c(cc1S(=O)(=O)O)-c1cc(S(=O)(=O)O)c(NC(=O)/C=C/c3cccc(O)c3)cc1S2(=O)=O` [Example 31, 3,7-Bis-[(E)-3-(3-hydroxy-phenyl)acryloylamino]-5,5-dioxo-5H-5^6-dibenzothiophene-2,8-disulfonic acid, disodium], 0.37 µg/mL.
Regarding `N#Cc1ccc(/C=C/C(=O)Nc2cc3c(cc2S(=O)(=O)O)-c2cc(S(=O)(=O)O)c(NC(=O)/C=C/c4ccc(C#N)cc4)cc2S3(=O)=O)cc1` [Example 32, 3,7-Bis-[3-(4-cyanophenyl)-acryloylamino]-5,5-dioxo-5H-5^6-dibenzothiophene-2,8-disulfonic acid, disodium salt], the IC50 came out at 0.42 µg/mL.
For the compound `O=C(/C=C/c1ccc(Br)cc1)Nc1cc2c(cc1S(=O)(=O)O)-c1cc(S(=O)(=O)O)c(NC(=O)/C=C/c3ccc(Br)cc3)cc1S2(=O)=O` [Example 33, 3,7-Bis-[3-(4-bromophenyl)-acryloylamino]-5,5-dioxo-5H-5^6-dibenzothiophene-2,8-disulfonic acid, disodium salt], the 50% inhibitory concentration (IC50) amounted to 0.36 µg/mL.
In the case of `COc1ccccc1/C=C/C(=O)Nc1cc2c(cc1S(=O)(=O)O)-c1cc(S(=O)(=O)O)c(NC(=O)/C=C/c3ccccc3OC)cc1S2(=O)=O` [Example 34, 3,7-Bis-[3-(2-methoxyphenyl)-acryloylamino]-5,5-dioxo-5H-5^6-dibenzothiophene-2,8-disulfonic acid, disodium salt], the IC50 was 0.37 µg/mL.
For the compound `CC(C)c1ccc(/C=C/C(=O)Nc2cc3c(cc2S(=O)(=O)O)-c2cc(S(=O)(=O)O)c(NC(=O)/C=C/c4ccc(C(C)C)cc4)cc2S3(=O)=O)cc1` [Example 36, 3,7-Bis-[3-(4-isopropylphenyl)-acryloylamino]-5,5-dioxo-5H-5^ -dibenzothiophene-2,8-disulfonic acid, disodium], the IC50 is 1.9 µg/mL.
Same read-out and setting: as for `O=C(/C=C/c1cccc(C(F)(F)F)c1)Nc1cc2c(cc1S(=O)(=O)O)-c1cc(S(=O)(=O)O)c(NC(=O)/C=C/c3cccc(C(F)(F)F)c3)cc1S2(=O)=O` [Example 38, 3,7-Bis-[3-(3-trifluoromethyl-phenyl)acryloyl-amino]-5,5-dioxo-5H-5^6-dibenzothiophene-2,8-disulfonic acid, disodium salt], the figure is 2.6 µg/mL.

Still in this experiment, the particulars now being: inhibition of 125I-VEGF 165 binding to BAE cells.
Consider `C=C(C(=O)Nc1cc2sc3cc(Cl)c(C(=O)[O-])cc3c2cc1C(=O)[O-])c1ccc(OC)c(OC)c1Cl.[Na+].[Na+]` [Example 14, 3-Chloro-7-[2-(2-chloro-3,4-dimethoxyphenyl)acryloylamino]dibenzothiophene-2,8-dicarboxylic acid, disodium salt], for which the “Cell Assay VEGF 165 IC50 BAE” value is 2.6 µg/mL.
As for `COc1ccccc1C=CC(=O)Nc1cc2c(cc1S(=O)(=O)[O-])-c1cc(S(=O)(=O)[O-])c(NC(=O)C=Cc3ccccc3OC)cc1S2(=O)=O.[Na+].[Na+]` [Example 37, 3,7-Bis-[3-(2-methoxyphenyl)-acryloylamino]-5,5-dioxo-5H-5^6-dibenzothiophene-2,8-disulfonic acid, disodium salt], the “Cell Assay VEGF 165 IC50 BAE” value came out at 0.32 µg/mL.
